{
  "sequences": {"note": "The chains behind the UniProt entries cited, without tags or fusion partners.", "UniProt P14416, whole entry": "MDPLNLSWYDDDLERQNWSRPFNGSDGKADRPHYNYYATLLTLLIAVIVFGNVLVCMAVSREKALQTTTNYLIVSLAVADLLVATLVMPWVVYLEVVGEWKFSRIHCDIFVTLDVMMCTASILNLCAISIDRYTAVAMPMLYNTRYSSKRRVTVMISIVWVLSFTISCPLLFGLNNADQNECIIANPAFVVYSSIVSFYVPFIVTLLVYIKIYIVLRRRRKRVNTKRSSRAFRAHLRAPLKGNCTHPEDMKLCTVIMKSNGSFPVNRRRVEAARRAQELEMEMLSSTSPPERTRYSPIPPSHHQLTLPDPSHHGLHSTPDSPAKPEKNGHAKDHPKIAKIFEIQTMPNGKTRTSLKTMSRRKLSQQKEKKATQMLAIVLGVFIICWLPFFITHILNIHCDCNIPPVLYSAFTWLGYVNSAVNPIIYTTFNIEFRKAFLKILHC"},
  "source": "PubChem BioAssay (Tox21)",
  "note": "Values joined by “and” are separate entries in the source; they are usually repeats but may differ in a detail not shown here. Identical values can stand only once. This is a selection; strong and weak results do not stand in their true shares. Records with an inconclusive call do not appear. Active and inactive are the calls of the source. The call rests on the fitted dose curve. On the % scale 0 is the no-effect control and ±100 the full control effect.",
  "data": [
    {"target": "D(2) dopamine receptor (Homo sapiens) (UniProt P14416)", "assay": "Dopamine D2 receptor (DRD2) small molecule agonists, cell-based qHTS assay (AID 1963594); further: nearly all actives have a fitted effect of over 35% in size", "details": "HEK293-DRD2 cAMP HTRF, agonist mode, 30 min; at 42.5 µM (top of the series)", "description": "(§1) National Center for Advancing Translational Sciences [NCATS]\n(§2) Division of Preclinical Innovation [DPI]\n(§3) U.S. Environmental Protection Agency [EPA]\n(§4) National Institutes of Environmental Health Sciences [NIEHS]\n(§5) National Toxicology Program [NTP]\n(§6) U.S. Food and Drug Administration [FDA]\n(§7) DRD2 is the D2 subtype of the dopamine receptor, which is coupled to Gi subtype of G protein-coupled receptor. This G protein-coupled receptor inhibits adenylyl cyclase activity. The DRD2-HEK293 cell line stably expressing D2 dopamine receptor can be used for screening agonists and antagonists of interactions between D2 and its ligands. The Hek293-DRD2 cAMP assay is based on HTRF technology. It measures changes of cAMP accumulation in response to Gi coupled GPCR activation or inhibition.\n(§8) Tox21 Assay Protocol Summary:\n(§9) DRD2-Hek293 cells were dispensed at 600 cells/3uL/well in 1536-well white plates using a Multidrop Dispenser. After the assay plates were incubated at a 37 C/5% CO2 incubator for 24 h, 1 uL of Ro20-1724 at final concentration of 0.1 mM was transferred to the assay plate by a Flying Reagent Dispenser. Following Ro20-1724 addition, 23 nL of compound dissolved in DMSO, positive controls or DMSO only was added to the assay plates via Wako pintool station. The assay plates were incubated at room temperature for 10 min. Next, 1 uL of NKH477 at 200nM was added into the plates. After the assay plates were incubated at room temperature for an additional 30 min, 2.5 ul/well of cAMP-d2 and 2.5 ul/well of anti-cAMP-cryptate were added respectively into the assay plates using a Flying Reagent Dispenser. The plates were incubated at room temperature for 1 h. The fluorescence intensity in the plates was measured at 340 nm excitation and 665 & 620 nm emission by an Envision plate reader.", "values": [
      {"smiles": "OCCSCCO", "activation": "inactive: 16.9%"}
    ]},
    {"target": "D(2) dopamine receptor (Homo sapiens) (UniProt P14416)", "assay": "Dopamine D2 receptor (DRD2) small molecule agonists, cell-based qHTS assay (AID 1963594); further: nearly all actives have a fitted effect of over 35% in size", "details": "HEK293-DRD2 cAMP HTRF, agonist mode, 30 min; at 92.4 µM (top of the series)", "description": "as §1, §2, §3, §4, §5, §6, §7, §8, §9", "values": [
      {"smiles": "OCCSCCO", "activation": "inactive: 3.86%"}
    ]},
    {"target": "D(2) dopamine receptor (Homo sapiens) (UniProt P14416)", "assay": "Dopamine D2 receptor (DRD2) small molecule agonists, cell-based qHTS assay (AID 1963594); further: nearly all actives have a fitted effect of over 35% in size", "details": "HEK293-DRD2 cAMP HTRF, agonist mode, 30 min; at 92.4 µM (top of the series) unless noted", "description": "as §1, §2, §3, §4, §5, §6, §7, §8, §9", "values": [
      {"smiles": "CP(=O)(O)OCCC[Si](O)(O)O", "activation": "inactive: 13.9%"},
      {"smiles": "O=[N+]([O-])OCC(CO[N+](=O)[O-])(CO[N+](=O)[O-])CO[N+](=O)[O-]", "activation": "inactive: -3.38%"},
      {"smiles": "CCN(CC)CCCl", "activation": "inactive: -1.04%"},
      {"smiles": "CCOP(=O)(CC)Oc1ccc([N+](=O)[O-])cc1", "note": "(stereo unspecified)", "activation": "inactive: 13% [at 42.5 µM]"},
      {"smiles": "N#CBr", "activation": "inactive: -2.13%"},
      {"smiles": "[NH4+].[O-][Cl+3]([O-])([O-])[O-]", "activation": "inactive: 1.29% and inactive: -0.0234%"},
      {"smiles": "CC(C)N(CCO)C(C)C", "activation": "inactive: -9.6%"},
      {"smiles": "COP(C)(=O)OC", "activation": "inactive: 0.809% and inactive: 3.47%"},
      {"smiles": "Cc1c([N+](=O)[O-])cccc1[N+](=O)[O-]", "activation": "inactive: -2.6% and inactive: -2.06%"},
      {"smiles": "Cc1ccc([N+](=O)[O-])cc1[N+](=O)[O-]", "activation": "inactive: -10.4%"},
      {"smiles": "COc1ccc([N+](=O)[O-])cc1[N+](=O)[O-]", "activation": "inactive: -2.09%"},
      {"smiles": "CC(C)OP(C)(=O)OC(C)C", "activation": "inactive: 1.09% and inactive: -26.1%"},
      {"smiles": "CCOP(=O)(CC)OCC", "activation": "inactive: -3.58%"},
      {"smiles": "C/C1=C2N=C(/C=C3N=C(/C(C)=C4\\[N-][C@@](C)([C@@H]5N=C1[C@](C)(CCC(=O)NC[C@@H](C)OP(=O)([O-])O[C@H]1[C@@H](O)[C@@H](n6cnc7cc(C)c(C)cc76)O[C@@H]1CO)[C@H]5CC(N)=O)[C@@](C)(CC(N)=O)[C@@H]4CCC(N)=O)[C@@](C)(CC(N)=O)[C@@H]\\3CCC(N)=O)C(C)(C)[C@@H]/2CCC(N)=O.[C-]#N.[Co+3]", "activation": "inactive: 1.97% [at 42.5 µM]"},
      {"smiles": "O=[N+]([O-])c1cccc([N+](=O)[O-])c1", "activation": "inactive: -1.55%"},
      {"smiles": "O=[N+]([O-])[O-].[NH4+]", "activation": "inactive: 2.05% and inactive: 17%"},
      {"smiles": "Cc1ccc([N+](=O)[O-])c([N+](=O)[O-])c1", "activation": "inactive: -0.776% and inactive: -7.45%"},
      {"smiles": "CN(C)CCCl", "activation": "inactive: -0.437%"},
      {"smiles": "N=C(N)N[N+](=O)[O-]", "activation": "inactive: -2.78%"}
    ]}
  ]
}
